Measurements published in patent publication US8470837B2, “MAPK/ERK kinase inhibitors” (Takeda Pharmaceutical Company Limted, priority 2006, dated 2013).

Chains of the proteins cited; added tags and fusions are not shown. A line that says so, or that is headed by a name, gives the form on record, which may keep a tag or linker.
UniProt Q02750, with tags, fused parts or gaps DEL30-49/S218E/S222D: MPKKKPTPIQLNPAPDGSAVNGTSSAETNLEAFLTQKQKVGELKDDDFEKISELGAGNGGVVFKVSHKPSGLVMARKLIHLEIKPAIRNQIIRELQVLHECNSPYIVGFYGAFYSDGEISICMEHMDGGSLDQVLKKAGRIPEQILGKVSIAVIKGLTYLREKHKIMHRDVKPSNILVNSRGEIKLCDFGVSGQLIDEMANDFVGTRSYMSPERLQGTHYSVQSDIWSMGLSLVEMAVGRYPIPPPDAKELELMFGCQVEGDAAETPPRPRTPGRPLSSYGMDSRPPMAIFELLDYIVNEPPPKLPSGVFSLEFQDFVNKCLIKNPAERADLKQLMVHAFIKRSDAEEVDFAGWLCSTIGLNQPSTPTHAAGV

Target: MEK1 (Homo sapiens, UniProt Q02750, DEL30-49/S218E/S222D)
Assay: MEK1 inhibition, fluorescence polarization assay with IMAP beads (ERK1 / FI-Erktide coupled)

| Compound | IC50 |
| --- | --- |
| Cn1cnc2c(c(Nc3ccc(I)cc3F)cc(=O)n2C)c1=O [Example 1, 5-(2-fluoro-4-iodophenylamino)-3,8-dimethylpyrido[2,3-d]pyrimidine-4,7(3H,8H)-dione] | ≥ 0.016 µM |
| Cn1c(=O)c(F)c(Nc2ccc(Br)cc2F)c2c(=O)n(C[C@@H](O)CO)cnc21 [Example 20, (R)-5-(4-Bromo-2-fluorophenylamino)-3-(2,3-dihydroxypropyl)-6-fluoro-8-methylpyrido[2,3-d]pyrimidine-4,7(3H,8H)-dione] | ≥ 0.016 µM |
